Source: ChEMBL document CHEMBL1155134, “Structural basis for the potent calpain inhibitory activity of peptidyl alpha-ketoacids” (J Med Chem, 2008)

Biological target: T1, Calpain-1 catalytic subunit (Sus scrofa, UniProt P35750)
T1 sequence (P35750 whole entry): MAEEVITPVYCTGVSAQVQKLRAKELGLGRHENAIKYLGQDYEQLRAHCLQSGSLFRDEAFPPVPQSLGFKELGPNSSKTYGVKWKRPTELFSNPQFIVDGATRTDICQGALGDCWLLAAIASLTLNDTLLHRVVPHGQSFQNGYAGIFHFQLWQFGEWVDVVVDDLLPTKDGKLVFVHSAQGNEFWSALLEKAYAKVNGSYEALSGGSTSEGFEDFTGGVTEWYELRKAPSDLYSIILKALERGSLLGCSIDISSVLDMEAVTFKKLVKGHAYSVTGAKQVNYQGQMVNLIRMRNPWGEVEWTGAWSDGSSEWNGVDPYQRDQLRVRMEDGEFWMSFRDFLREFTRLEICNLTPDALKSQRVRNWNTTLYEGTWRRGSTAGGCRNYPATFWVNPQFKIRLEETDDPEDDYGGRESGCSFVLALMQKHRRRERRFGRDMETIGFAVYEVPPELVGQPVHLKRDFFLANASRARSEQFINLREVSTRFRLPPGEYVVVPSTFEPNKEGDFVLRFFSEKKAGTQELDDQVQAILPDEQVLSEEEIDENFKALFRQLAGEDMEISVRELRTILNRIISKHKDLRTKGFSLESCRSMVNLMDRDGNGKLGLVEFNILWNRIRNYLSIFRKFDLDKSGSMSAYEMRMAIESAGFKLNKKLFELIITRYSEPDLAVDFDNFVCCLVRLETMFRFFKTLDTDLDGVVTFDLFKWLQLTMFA
Experiment: Inhibition of pig erythrocyte mu-calpain by fluorometric assay

COC(=O)C(=O)[C@H](Cc1ccccc1)NC(=O)[C@H](CC(C)C)NC(=O)CC(c1ccccc1)c1ccccc1 was tested, and the Ki was 2150 nM.
